According to published antibiotic growth screens (doi:10.1038/s41589-023-01349-8):
The other results are listed elsewhere or left out.

The molecules below were run on A. baumannii ATCC 17978 (assay: relative growth (fraction of control); higher = less inhibition). Conditions: 50 µM.
With `C[C@H](CO)N1C[C@H](C)[C@@H](CN(C)C(=O)CN(C)C)Oc2ncc(C#CC(C)(C)O)cc2C1=O` the relative growth was 1.05.
`CCN1C(=O)[C@H]2[C@H](O)CS[C@H]2C1=O` was tested, and the relative growth was 0.878.
With `N#C[C@H](N)c1ccc(Cl)cc1` the relative growth was 0.998.
Work on `COCC#Cc1ccc2c(c1)O[C@@H](CN(C)S(C)(=O)=O)[C@@H](C)CN([C@@H](C)CO)S2(=O)=O` yielded a relative growth of 1.02.
`Cc1ccc(S(=O)(=O)N2C[C@@H](O)COC[C@@H]3O[C@H](CC(=O)N[C@H]4CCN(Cc5ccccc5)C4)CC[C@H]32)cc1` showed a relative growth of 1.11.
Work on `CNC(=O)c1c(O)c2ccccc2n(C)c1=O` yielded a relative growth of 1.
Molecule `CO[C@@H]1CN(C)C(=O)c2ccc(NS(=O)(=O)c3cn(C)cn3)cc2OC[C@H](C)N(Cc2cccc(F)c2)C[C@@H]1C` has a relative growth of 0.944.
`Cn1c(=O)c2[nH]c(Br)nc2n(C)c1=O` was tested, and the relative growth was 1.08.
Molecule `O=C(C[C@@H]1CC[C@@H]2[C@H](COC[C@@H](O)CN2S(=O)(=O)c2ccccc2)O1)N1CCOCC1` has a relative growth of 1.03.
Work on `C[C@H]1CN([C@@H](C)CO)S(=O)(=O)c2ccc(C#CC3CC3)cc2O[C@@H]1CN(C)Cc1ccc(F)cc1` yielded a relative growth of 1.31.
Work on `C[C@H]1CN([C@@H](C)CO)S(=O)(=O)c2ccc(C#CC3CC3)cc2O[C@@H]1CN(C)C(=O)Cc1ccncc1` yielded a relative growth of 0.876.
For `CC(C)C[C@H]1NC(=O)N(C)C1=O`, the relative growth was 0.89.
Molecule `C[C@H](O)C#Cc1ccc2c(c1)O[C@H](CN(C)C(=O)c1ccncc1)[C@@H](C)CN([C@@H](C)CO)S2(=O)=O` has a relative growth of 1.08.
Molecule `COC(=O)CCCCC(=O)c1[nH]c(=O)[nH]c1C` has a relative growth of 0.948.
`O=c1[nH]nc(N2CCSCC2)[nH]1` showed a relative growth of 0.977.
Work on `Cc1csc2sc(C(=O)Oc3ccc(Cl)cc3)c(C)c12` yielded a relative growth of 0.978.
Work on `O=C(N[C@H]1C=C[C@H](CC(=O)N2CCOCC2)O[C@H]1CO)c1ccc2c(c1)OCO2` yielded a relative growth of 1.31.
`CCOC(=O)Cn1cnc2ccccc2c1=O` showed a relative growth of 1.12.
`O=C(CCCCCCC(=O)Nc1ccccc1O)N/N=C/[C@H](O)[C@@H](O)[C@H](O)CO` showed a relative growth of 1.15.
Work on `CC(C)(C)NCC(O)c1ccc(O)c(CO)c1` (stereo not given) yielded a relative growth of 0.971.
`O=C(/C=C/c1ccccc1)c1ccc(O)cc1O` gave a relative growth of 0.885.
`Clc1ccc(Sc2ccc(-c3ccccn3)s2)cc1` gave a relative growth of 0.962.
With `O=C(NCCN1CCOCC1)c1cccs1` the relative growth was 1.13.
Molecule `COc1cccc(NC(=O)N[C@H]2C=C[C@H](CC(=O)N3CCOCC3)O[C@@H]2CO)c1` has a relative growth of 1.06.
Work on `O=S(=O)(NCC[C@H]1CC[C@H](NS(=O)(=O)c2cccc(Cl)c2)[C@H](CO)O1)c1cccc(F)c1` yielded a relative growth of 0.996.
In the case of `NC(=O)CSc1nnc(Cc2cc(=O)[nH]c(=O)[nH]2)n1-c1ccccc1`, the relative growth is reported as 1.06.
In the case of `Cc1ccc(S[C@]2(C(=O)NCC(C)C)CC(=O)N(Cc3ccccc3)[C@@H]2c2ccc(CO)cc2)cc1`, the relative growth is reported as 0.853.
In the case of `O=C(C[C@@H]1CC=CC[C@H](NC(=O)OCC2c3ccccc3-c3ccccc32)C(=O)OC[C@@H](Cc2c[nH]c3ccccc23)NC1=O)N[C@@H](CO)Cc1ccccc1`, the relative growth is reported as 0.962.
For `Nc1ccc(Oc2ccc3ccccc3c2Cl)c(Cl)c1`, the relative growth was 0.781.
`COc1ccc(C(=O)Nc2ccc(CN3C(=O)[C@@]4(O[C@@H](CC(=O)N5CCC[C@H]5CO)[C@H]([Si](C)(C)c5ccc(OC)cc5)[C@H]4C)c4ccccc43)cc2)cc1` was tested, and the relative growth was 0.973.
Molecule `CCc1ccc(CCOc2ccc(CC3SC(=O)NC3=O)cc2)nc1.Cl` (stereo not given) has a relative growth of 0.968.
Molecule `Cn1c(=O)c2c(ncn2C)n(C)c1=O` has a relative growth of 0.94.
For `C[C@@H]1CC[C@]2(C(=O)O[C@@H]3O[C@H](CO)[C@@H](O)[C@H](O)[C@H]3O)CC[C@]3(C)C(=CC[C@H]4[C@@]5(C)C[C@@H](O)[C@H](O)[C@@](C)(CO)[C@@H]5CC[C@]43C)[C@@H]2[C@]1(C)O`, the relative growth was 0.952.
`C[C@@H]1CN([C@H](C)CO)S(=O)(=O)c2ccc(-c3cccc(F)c3)cc2O[C@@H]1CN(C)S(C)(=O)=O` showed a relative growth of 0.989.
Work on `NC(=NC(=O)N1CCOCC1)c1ccccc1` yielded a relative growth of 0.758.
`O=C1CCc2c(ccc3ccccc23)O1` gave a relative growth of 0.943.
Work on `C[C@H](CO)N1C[C@H](C)[C@H](CN(C)C(=O)C2CCOCC2)Oc2cc(-c3ccc(F)cc3)ccc2S1(=O)=O` yielded a relative growth of 1.06.
For `COc1ccc(NC(=O)N2C[C@@H](O)COC[C@@H]3O[C@@H](CC(=O)NC4Cc5ccccc5C4)CC[C@H]32)cc1`, the relative growth was 1.12.
With `S=P(N1CC1)(N1CC1)N1CC1` the relative growth was 1.36.
`N[C@H](Cc1cc(I)c(Oc2ccc(O)c(I)c2)c(I)c1)C(=O)O` was tested, and the relative growth was 1.37.
`Cc1ccc(S(=O)(=O)N[C@@H](Cc2ccccc2)C(=O)NCCn2cc(C(=O)NO)nn2)cc1` gave a relative growth of 0.936.
`CCN1CCCC1CNC(=O)c1cc(S(=O)(=O)CC)c(N)cc1OC` (stereo not given) was tested, and the relative growth was 1.2.
`O=S1(=O)CC[C@H](S(=O)(=O)N2CCOCC2)C1` was tested, and the relative growth was 1.06.
Molecule `CC(=O)O.N=C(N)N/N=C\c1c(Cl)cccc1Cl` has a relative growth of 0.903.
`CN[C@H](CC(C)C)C(=O)N[C@@H]1C(=O)N[C@@H](CC(N)=O)C(=O)N[C@H]2C(=O)N[C@@H]3C(=O)C[C@H](C(=O)N[C@@H](C(=O)O)c4cc(O)cc(O)c4-c4cc3ccc4O)[C@H](O)c3ccc(c(Cl)c3)Oc3cc2cc(c3O[C@@H]2O[C@@H](CO)[C@@H](O)[C@H](O)[C@H]2O[C@H]2C[C@](C)(N)[C@H](O)[C@H](C)O2)Oc2ccc(cc2Cl)[C@H]1O` showed a relative growth of 0.96.
